Values quoted from earlier work as cited in patent US7517870B2, “Use of compounds that interfere with the hedgehog signaling pathway for the manufacture of a medicament for preventing, inhibiting, and/or reversing ocular diseases related with ocular neovascularization” (Fondazione Telethon, priority 2004, dated 2009).

Tested on: breast cancer cells
Conditions: via the Hh signalling pathway; cited from earlier work

## CC1=C2C[C@H]3[C@@H](CC=C4C[C@@H](O)CC[C@@]43C)[C@@H]2CC[C@]12O[C@@H]1C[C@H](C)CN[C@H]1[C@H]2C [cyclopamine]
  growth of breast cancer cells: blocks the growth of breast cancer cells
